In general, IC50 refers to the concentration that gives 50% inhibition.

Protein sequences, listed by entry. Tags and fused reporters are not part of them. Lines headed by an entry give the natural chain unless they say otherwise; changes in a name come on top.
UniProt P29597: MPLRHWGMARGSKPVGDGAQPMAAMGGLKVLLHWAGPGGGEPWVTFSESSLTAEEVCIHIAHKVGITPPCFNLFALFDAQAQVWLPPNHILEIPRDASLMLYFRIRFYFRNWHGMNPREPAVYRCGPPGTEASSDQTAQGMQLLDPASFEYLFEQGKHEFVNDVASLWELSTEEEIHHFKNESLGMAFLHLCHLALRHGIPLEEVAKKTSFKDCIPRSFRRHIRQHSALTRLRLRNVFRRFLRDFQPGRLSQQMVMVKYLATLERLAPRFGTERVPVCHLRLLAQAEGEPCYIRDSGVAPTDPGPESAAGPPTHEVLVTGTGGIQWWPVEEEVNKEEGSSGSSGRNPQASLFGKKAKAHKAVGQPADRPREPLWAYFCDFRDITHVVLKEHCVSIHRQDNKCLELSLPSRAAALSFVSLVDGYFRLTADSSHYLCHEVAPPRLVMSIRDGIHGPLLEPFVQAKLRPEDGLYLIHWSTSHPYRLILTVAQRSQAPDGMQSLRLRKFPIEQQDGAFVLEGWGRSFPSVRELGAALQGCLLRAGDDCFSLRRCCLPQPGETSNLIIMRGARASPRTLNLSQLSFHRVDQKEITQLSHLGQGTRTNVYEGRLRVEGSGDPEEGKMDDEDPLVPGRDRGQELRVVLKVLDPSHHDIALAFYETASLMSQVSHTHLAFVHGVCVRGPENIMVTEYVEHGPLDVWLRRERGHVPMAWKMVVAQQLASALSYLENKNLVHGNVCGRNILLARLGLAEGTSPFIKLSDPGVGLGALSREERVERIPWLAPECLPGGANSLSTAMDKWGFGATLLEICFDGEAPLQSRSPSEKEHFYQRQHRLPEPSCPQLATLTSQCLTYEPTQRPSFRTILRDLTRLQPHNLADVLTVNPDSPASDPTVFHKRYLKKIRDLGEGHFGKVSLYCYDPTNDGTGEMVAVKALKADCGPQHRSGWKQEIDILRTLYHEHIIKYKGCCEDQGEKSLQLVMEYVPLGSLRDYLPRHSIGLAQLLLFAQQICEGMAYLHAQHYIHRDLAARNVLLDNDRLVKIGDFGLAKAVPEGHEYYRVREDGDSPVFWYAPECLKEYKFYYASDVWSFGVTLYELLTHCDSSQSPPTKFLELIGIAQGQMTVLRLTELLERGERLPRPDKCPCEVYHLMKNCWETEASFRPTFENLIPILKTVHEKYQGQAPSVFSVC
UniProt P52333: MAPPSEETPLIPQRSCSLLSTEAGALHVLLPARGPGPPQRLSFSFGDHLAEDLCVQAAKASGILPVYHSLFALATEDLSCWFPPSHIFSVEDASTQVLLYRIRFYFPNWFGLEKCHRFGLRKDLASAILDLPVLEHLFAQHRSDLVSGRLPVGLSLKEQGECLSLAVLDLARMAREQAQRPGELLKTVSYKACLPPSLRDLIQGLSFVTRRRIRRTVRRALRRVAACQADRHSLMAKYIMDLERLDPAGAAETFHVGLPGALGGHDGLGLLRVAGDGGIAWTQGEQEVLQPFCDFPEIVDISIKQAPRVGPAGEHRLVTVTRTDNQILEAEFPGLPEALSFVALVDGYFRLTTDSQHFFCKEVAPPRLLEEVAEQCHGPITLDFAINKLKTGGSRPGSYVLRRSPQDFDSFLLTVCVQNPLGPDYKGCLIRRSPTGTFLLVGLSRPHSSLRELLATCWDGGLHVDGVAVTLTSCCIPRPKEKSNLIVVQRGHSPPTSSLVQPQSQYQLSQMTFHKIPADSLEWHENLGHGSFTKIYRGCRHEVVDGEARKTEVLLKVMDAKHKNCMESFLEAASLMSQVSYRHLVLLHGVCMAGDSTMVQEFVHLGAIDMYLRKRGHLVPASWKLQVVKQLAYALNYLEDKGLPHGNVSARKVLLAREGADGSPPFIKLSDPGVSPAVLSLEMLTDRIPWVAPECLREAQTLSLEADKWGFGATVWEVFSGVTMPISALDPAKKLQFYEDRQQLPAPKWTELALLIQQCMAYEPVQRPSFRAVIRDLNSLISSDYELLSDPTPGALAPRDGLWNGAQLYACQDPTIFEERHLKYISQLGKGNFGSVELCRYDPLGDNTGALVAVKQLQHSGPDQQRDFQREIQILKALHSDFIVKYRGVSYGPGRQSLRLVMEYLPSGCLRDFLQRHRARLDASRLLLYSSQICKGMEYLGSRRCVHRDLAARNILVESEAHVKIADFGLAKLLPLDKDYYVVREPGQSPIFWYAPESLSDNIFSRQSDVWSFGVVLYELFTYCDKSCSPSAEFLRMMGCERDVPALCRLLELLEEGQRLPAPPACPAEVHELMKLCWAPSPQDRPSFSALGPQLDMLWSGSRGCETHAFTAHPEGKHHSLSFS

Structures are written as SMILES.

In patent US9216999B2, “Substituted pyrrolo[2,3-h][1,6]naphthyridines and compositions thereof as JAK inhibitors” (priority 2011, dated 2015) one finds IC50 data, which are given here for 16 molecules.

The target in assay [1] is T1, Tyk2 (Homo sapiens (Human), UniProt P29597). Briefly: Tyk2 enzyme assay (Assay Example^b 1).
The target in assay [2] is T2, JAK1 (Homo sapiens (Human), UniProt P23458). Briefly: JAK1 enzyme assay (Assay Example^b 1). The settings on record: IC50 (μM) JAK1, Table^b 78; ATP 100 μM.
Assay [3] concerns the target T3, JAK3 (Homo sapiens (Human), UniProt P52333). Briefly: JAK3 enzyme assay (Assay Example^b 1). The settings on record: IC50 (μM) JAK3, Table^b 78; ATP 100 μM.
Assay [4] concerns the target T2, JAK1. In words: Enzyme assay (Assay Example^a 1), JAK1. In kind it is biochemical. As to conditions: ATP 100 μM.
Assay [5] concerns the target T3, JAK3. In words: Enzyme assay (Assay Example^a 1), JAK3. In kind it is biochemical. As to conditions: read-out: IC50 (μM) JAK3.
Assay [6] deals with T1, Tyk2. In words: Enzyme assay (Assay Example^a 1), Tyk2. As to conditions: ATP 100 μM. In kind it is biochemical.
Assay [7] concerns the target T4, JAK2 (Homo sapiens (Human), UniProt O60674). Briefly: Enzyme assay (Assay Example^a 1), JAK2. As to conditions: ATP 100 μM; read-out: IC50 (μM) JAK2. It is filed as biochemical.
Assay [8] addresses T4, JAK2. Briefly: JAK2 enzyme assay (Assay Example^b 1).
[9] abbreviates: IC50 (μM) TYK2, Table^b 80, ATP 100 μM.
Where [10] appears, read: IC50 (μM) TYK2, Table^b 79, ATP 100 μM.
Where [11] appears, read: IC50 (μM) JAK2, Table^b 79, ATP 100 μM.

As to `C[C@@H]1CCN(Cc2ccccc2)C[C@@H]1n1ccc(=O)c2cnc3[nH]cc(Cl)c3c21` (racemic) [compound 22], at Tyk2 [1] (setting [9]), the IC50 is > 1 µM.

On to `O=c1ncc2cnc3[nH]ccc3c2n1C1CCCCC1` [compound 18], for which the IC50 came to 0.045 µM against JAK1 [2] and 1.2 µM on JAK3 [3].

Take `O=C[C@H]1CC[C@@H](c2nnn3cnc4[nH]ccc4c23)CC1` [compound 402, cis-4-(7H-Pyrrolo[3,2-e][1,2,3]triazolo[1,5-c]pyrimidin-1-yl)cyclohexanecarbaldehyde]: the IC50 against JAK1 [4] was 0.011 µM; at JAK3 [5] it was 0.13 µM; at Tyk2 [6], 0.1 µM; at JAK2 [7] it was 0.03 µM.

As for `CN(CC(F)(F)F)C[C@H]1CC[C@H](n2c(=O)[nH]c(=O)c3cnc4[nH]ccc4c32)CC1` [Synthetic Example^b 136, 1-(trans-4-{[Methyl(2,2,2-trifluoroethyl)amino]methyl}cyclohexyl)-1H-pyrrolo[3′,2′:5,6]pyrido[4,3-d]pyrimidine-2,4(3H,7H)-dione], the 50% inhibitory concentration (IC50) against Tyk2 [1] (IC50 (μM) TYK2, ATP 100 μM) was 0.32 µM; against JAK2 [8] (IC50 (μM) JAK2, ATP 100 μM) it was 0.051 µM.

With `O=c1ccn(C2CCCCC2)c2c1cnc1[nH]ccc12` [compound 3], the values for the IC50 at Tyk2 [1] (setting [10]) and at JAK2 [8] (setting [11]) were 0.13 µM and 0.15 µM, respectively.

`O=c1[nH]c(=O)n([C@H]2CC[C@H](CN3CC[C@@H](O)C3)CC2)c2c1cnc1[nH]ccc12` [compound 112] registered an IC50 against Tyk2 [1] (IC50 (μM) TYK2, ATP 100 μM) of 0.032 µM.

Consider `CC(C)CS(=O)(=O)N1CC[C@@H](C)[C@@H](n2ccc(=O)c3cnc4[nH]ccc4c32)C1` (racemic) [compound 10], for which the IC50 amounted to 1.6 µM against Tyk2 [1] (setting [10]), 0.039 µM against JAK2 [8] (setting [11]) and 0.0081 µM at JAK1 [2].

For the molecule `O[C@H]1CCN(C[C@H]2CC[C@@H](c3nnn4cnc5[nH]ccc5c34)CC2)C1` [compound 404, (S)-1-{[cis-4-(7H-pyrrolo[3,2-e][1,2,3]triazolo[1,5-c]pyrimidin-1-yl)cyclohexyl]methyl}pyrrolidin-3-ol], the concentration for half-maximal inhibition (IC50) against JAK1 [4] is 0.11 µM; on JAK3 [5], 0.32 µM; against Tyk2 [6], > 1 µM; at JAK2 [7] it was 0.35 µM.

Take `O=C(CC(F)(F)F)N(CC(F)(F)F)C[C@H]1CC[C@H](n2c(=O)[nH]c(=O)c3cnc4[nH]ccc4c32)CC1` [compound 155]: the IC50 on Tyk2 [1] (IC50 (μM) TYK2, ATP 100 μM) is 0.14 µM.

`C[C@@H]1CCN(S(=O)(=O)CC(F)(F)F)C[C@@H]1n1ccc(=O)c2cnc3[nH]ccc3c21` (racemic) [compound 11] gave a concentration for half-maximal inhibition (IC50) at Tyk2 [1] (setting [10]) of 0.44 µM.

Turning to `C[C@@H]1CCN(C(=O)Cc2ccc(F)cc2)C[C@@H]1n1ccc(=O)c2cnc3[nH]ccc3c21` (racemic) [compound 32], the IC50 against Tyk2 [1] (setting [9]) is > 1 µM.

As to `C[C@@H]1CCN(Cc2ccccc2)C[C@@H]1n1cc(Br)c(=O)c2cnc3[nH]ccc3c21` (racemic) [compound 24], the IC50 against Tyk2 [1] (IC50 (μM) TYK2) is > 1 µM.

Consider `O[C@@H]1CCN(C[C@H]2CC[C@H](c3nnn4cnc5[nH]ccc5c34)CC2)C1` [compound 267, (R)-1-{[trans-4-(7H-pyrrolo[3,2-e][1,2,3]triazolo[1,5-c]pyrimidin-1-yl)cyclohexyl]methyl}pyrrolidin-3-ol], for which the IC50 at JAK1 [4] was 0.001 µM; at JAK3 [5], 0.79 µM; at Tyk2 [6] it was 0.019 µM; at JAK2 [7] it was 0.032 µM.

Turning to `O=c1[nH]c(=O)n(C2CCC(CNCC3CC3)CC2)c2c1cnc1[nH]ccc12` (stereo not drawn) [compound 117], the IC50 against Tyk2 [1] (IC50 (μM) TYK2, ATP 100 μM) worked out at 0.8 µM; at JAK2 [8] (IC50 (μM) JAK2, ATP 100 μM), 0.85 µM.

Consider `O[C@@H]1CCN(C[C@H]2CC[C@@H](c3nnn4cnc5[nH]ccc5c34)CC2)C1` [compound 405, (R)-1-{[cis-4-(7H-pyrrolo[3,2-e][1,2,3]triazolo[1,5-c]pyrimidin-1-yl)cyclohexyl]methyl}pyrrolidin-3-ol], for which the IC50 is 0.025 µM against JAK1 [4], > 1 µM on JAK3 [5], 0.77 µM against Tyk2 [6] and 0.25 µM on JAK2 [7].

On to `N#Cc1ccc(CN2CCC(c3ncn4cnc5[nH]ccc5c34)CC2)cc1` [compound 210, 4-{[4-(7H-Imidazo[1,5-c]pyrrolo[3,2-e]pyrimidin-1-yl)piperidin-1-yl]methyl}benzonitrile], for which the IC50 at JAK1 [4] (Table^a 154) was 0.0047 µM; at JAK3 [5] (ATP 100 μM, Table^a 154) it was 0.077 µM; at Tyk2 [6] (Table^a 154), 0.29 µM.
